Measurements as given in patent US4789683A, “Benzamido-derivatives” (priority 1981, dated 1988).

Protein sequences, listed by entry. Tags and fused reporters are not part of them.
UniProt P61169, whole entry: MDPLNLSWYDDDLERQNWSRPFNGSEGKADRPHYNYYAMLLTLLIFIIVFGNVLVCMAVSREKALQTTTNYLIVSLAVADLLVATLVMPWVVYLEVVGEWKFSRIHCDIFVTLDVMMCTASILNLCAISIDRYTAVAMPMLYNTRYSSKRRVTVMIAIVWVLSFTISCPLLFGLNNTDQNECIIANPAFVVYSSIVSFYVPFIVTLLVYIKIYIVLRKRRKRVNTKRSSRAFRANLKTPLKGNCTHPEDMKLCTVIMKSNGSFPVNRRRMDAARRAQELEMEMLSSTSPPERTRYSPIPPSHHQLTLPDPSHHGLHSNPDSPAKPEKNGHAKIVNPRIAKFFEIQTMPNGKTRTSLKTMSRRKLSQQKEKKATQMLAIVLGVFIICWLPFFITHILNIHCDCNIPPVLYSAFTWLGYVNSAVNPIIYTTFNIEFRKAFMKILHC

Molecular target: DA receptors in the brain (Rattus norvegicus, UniProt P61169)
Experiment: Block of apomorphine-induced stereotypies in the rat (0-3 scale)
Conditions: po, read-out: potency to block apomorphine, ED50 Stereotypies

CCN1CCCC1CNC(=O)c1cc(S(N)(=O)=O)ccc1OC (stereo not shown) [Sulpiride, reference compound]
ED50: > 586 µmol/kg
